## scFv variants of Ab-14 (heavy chain) against a SARS-CoV-2 spike peptide

The target is the same throughout: PDVDLGDISGINAS, from the HR2 region of SARS-CoV-2 spike.

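Phage display of a naive human antibody library on the peptide gave the parent. In library AAYL49, one, two or three CDR residues were substituted; doubles and triples were drawn at random. The scFvs were displayed on barcoded MATa yeast, the peptide on MATalpha yeast. Binding brings cells together so that they mate, and sequencing counts the barcode pairs among the diploids. Each replicate has its own calibration line, from reference interactions of the BCL2 family. There are three technical replicates.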

Parent scFv Ab-14: VH joined to VL by a (GGGGS)3 linker. Changes lie in the heavy chain CDRs alone.
VH: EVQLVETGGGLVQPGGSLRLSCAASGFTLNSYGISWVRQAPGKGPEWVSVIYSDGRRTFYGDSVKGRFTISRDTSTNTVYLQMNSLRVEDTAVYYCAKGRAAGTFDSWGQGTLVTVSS
VL: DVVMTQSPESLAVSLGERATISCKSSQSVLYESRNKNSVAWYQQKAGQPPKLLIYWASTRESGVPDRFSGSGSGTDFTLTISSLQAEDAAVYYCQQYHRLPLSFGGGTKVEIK

Each variant is given by its three heavy chain CDRs, as the data file delimits them; those of the parent are GFTLNSYGIS, VIYSDGRRTFYGDSVK, GRAAGTFDS.
The read-out is the apparent dissociation constant on a log10 scale (nM): the lower, the stronger.
The mean shown is taken over the replicates in which the pair was detected.
"nd" means that the variant was in the library but no mating with the target was seen in that replicate; the authors take this as a sign of poor binding, and no number exists.
The list is sorted by this average, lowest first, undetected variants last.
Empty control strains, which show no peptide, gave a signal in 15% of pairings with library AAYL49; the median was 4.06 and 95% of these signals were weaker than 2.83. No background was subtracted. For each scFv, signals with the empty controls are counted beside the result.
Parent in this assay: reference entry 0.65, copy in this library 4.11 (one replicate of three).

The variant GFTLNSYGIS / VIYSDGIRTFYPDSVK / GRAAGTFDL gave 1.54, 1.52, 1.73 (mean 1.60; controls 1 of 9).
The variant GNTLNSYGIS / VIYSDGRRTFYGDSVK / GLKAGTFDS gave 2.43, 1.29, 2.64 (mean 2.12; controls 0 of 9).
The variant GFTLNSYGIS / VIYVDGRLTFYGDSVR / GRAAGTFDS gave 2.45, nd, nd (controls 3 of 9).
The variant GFTLNSYGIW / VIYSDGRRTFYGDSVK / GRAAGVLDS gave nd, 3.48, nd (controls 1 of 9).
The variant GFTLNSYGIS / VIYSDGRRTFYGHSVK / HRAAGTFDA gave nd, 3.54, nd (controls 0 of 9).
The variant YFTLNSYGIH / VIPSDGRRTFYGDSVK / GRAAGTFDS gave 3.61, nd, nd (controls 1 of 9).
The variant GFTWNSYGIS / VINSDGRRTFYGDSVK / GRAAGSFDS gave 3.32, 4.76, 3.30 (mean 3.79; controls 3 of 9).
The variant GETLNSYGIS / VFYSDGRRTGYGDSVK / GRAAGTFDS gave 3.80, 2.92, 5.58 (mean 4.10; controls 3 of 9).
The variant GFTLNSYGIS / VIYYDGRRIFYGDSVK / GRAAGTFDS gave nd, 4.99, 4.20 (mean 4.60; controls 5 of 9).
The variant GFTLNSYGIS / VIYSDKLRTFYGDSVK / ERAAGTFDS gave 4.65, nd, nd (controls 0 of 9).
The variant GFTLNSYGIS / VIASWGRRTFYGDSVK / GRAAGGFDS gave nd, 4.78, nd (controls 1 of 9).
The variant GFTLNSYVIS / VIYSDGRRWFYGDSVK / VRAAGTFDS gave 6.50, 4.03, 3.96 (mean 4.83; controls 3 of 9).
The variant KFTLNVYGIS / VIYSDGRRTFYGDSVK / SRAAGTFDS gave 5.54, 4.48, nd (mean 5.01; controls 1 of 9).
The variant MFTLNSYGFS / VIYSDGRRTFWGDSVK / GRAAGTFDS gave 5.22, 3.56, 6.29 (mean 5.02; controls 9 of 9).
The variant GFTLWSYGIS / VIYTQGRRTFYGDSVK / GRAAGTFDS gave nd, nd, nd (controls 0 of 9).

Second part, the sequence after the result:

Read-out nd, nd, nd (controls 0 of 9), from GFTLNSYGIS / VIYSDKRYTFYGDSVK / GRAAGTFDS.
Read-out nd, nd, nd (controls 2 of 9), from GFTLNSYGIS / VIYSDGRRTFYGDSEK / GRAAGIFDP.
Read-out nd, nd, nd (controls 0 of 9), from GFTLNSYGIS / VIYSDGRRTFYGDSVK / SRAAGRFDD.
Read-out nd, nd, nd (controls 4 of 9), from GFTLNSYGIS / VIYSDGRETFYGDSVK / GRAAPTFDS.
Read-out nd, nd, nd (controls 4 of 9), from GFTLNSYGIG / VIYSDGRRTFYGDYVK / GRAAGTFWS.
Read-out nd, nd, nd (controls 1 of 9), from GFTLNSQGIS / VIYSDGRRTFAGDSVK / GRAAGTFDY.
Read-out nd, nd, nd (controls 1 of 9), from GFTLNSYGIS / VIYEDGRRTFYGDSVK / GTAAFTFDS.
Read-out nd, nd, nd (controls 0 of 9), from MFTLNSYGIS / VIYSDGRRTFYGMSVK / GRAQGTFDS.
Read-out nd, nd, nd (controls 1 of 9), from GFTLCSYGIS / VIYSDNRRTFYGDSVK / GRAAGTTDS.
Read-out nd, nd, nd (controls 4 of 9), from GRTLNSYGIS / VIYSPGRRTFYGDSVK / GRAAGTFDS.
Read-out nd, nd, nd (controls 0 of 9), from GFTLNSYGIG / VIYSDGRRWFYGDSVK / GKAAGTFDS.
Read-out nd, nd, nd (controls 0 of 9), from GFTLNSYGIS / VIYSDGLRTFYGVSVK / GRAAGTFPS.
Read-out nd, nd, nd (controls 1 of 9), from GFTLPSYGIR / VIYSDGRRNFYGDSVK / GRAAGTFDS.
Read-out nd, nd, nd (controls 0 of 9), from GFTLNSYGIS / VRYSDGRITFYGDSVK / GRTAGTFDS.
Read-out nd, nd, nd (controls 0 of 9), from GFTLNSYGIS / VIYSIGRRLFYGKSVK / GRAAGTFDS.

The first 3 variants above that were never detected:

| CDR-H1 | CDR-H2 | CDR-H3 | log10 Kd, replicates | mean log10 Kd (nM) | signal with controls |
|---|---|---|---|---|---|
| GFTLWSYGIS | VIYTQGRRTFYGDSVK | GRAAGTFDS | nd, nd, nd | nd | 0 of 9 |
| GFTLNSYGIS | VIYSDKRYTFYGDSVK | GRAAGTFDS | nd, nd, nd | nd | 0 of 9 |
| GFTLNSYGIS | VIYSDGRRTFYGDSEK | GRAAGIFDP | nd, nd, nd | nd | 2 of 9 |

Data: MIT Lincoln Laboratory AlphaSeq set, Engelhart et al. 2022, doi:10.1038/s41597-022-01779-4, as distributed in FLAb.